# Experimental data reported in patent US6008258A, “d-methadone, a nonopioid analegesic” (priority 1998, dated 1999).
# “Also recorded” adds a separate entry of the source. Where two headings read alike, the source gives them in different places.
# Columns and labels:
# [1] = target: NMDA receptor (noncompetitive MK-801 site), rat forebrain; assay type: binding
# [2] = target: NMDA receptor (competitive site), rat forebrain; test: [3H]CGS-19755 displacement, rat forebrain membranes; assay type: binding; conditions: CNS region forebrain
# [3] = system: opiate receptors of rat brain; conditions: Horng; cited from earlier work
# rat = test: Overt CNS/motor effects and 60-degree mesh test after spinal drug
structure (smiles),measurement,setting,value
COc1ccc2c(c1)[C@]13CCCC[C@@H]1[C@H](C2)N(C)CC3 [Dextromethorphan],Ki,"[1]; read-out: [3H]MK-801 Ki, forebrain",5 ± 0.3 µM
same,affinity for NMDA receptor (noncompetitive MK-801 site),[1]; spinal cord and forebrain,moderate affinity
same,Ki,[2],> 100 µM
"CCC(=O)C(C[C@@H](C)N(C)C)(c1ccccc1)c1ccccc1 [l-Methadone, (R)-(-)-methadone]",affinity for NMDA receptor (noncompetitive MK-801 site),[1],"moderate affinity; also recorded: μM affinity, similar to that of dextromethorphan"
same,displacement of [3H]MK-801 binding,[1],displacement curves similar to dextromethorphan
same,relative potency in displacing [3H]MK-801,[1],slightly more potent
same,ability to displace [3H]naloxone binding vs d-methadone (greater),[3],30 fold
CCC(=O)C(CC(C)N(C)C)(c1ccccc1)c1ccccc1 (racemic) [dl-Methadone],affinity for NMDA receptor (noncompetitive MK-801 site),[1],moderate affinity
same,displacement of [3H]MK-801 binding,[1],displacement curves similar to dextromethorphan
"CCC(=O)C(C[C@H](C)N(C)C)(c1ccccc1)c1ccccc1 [d-Methadone, (S)-(+)-methadone]",affinity for NMDA receptor (noncompetitive MK-801 site),[1],"moderate affinity; also recorded: μM affinity, similar to that of dextromethorphan"
same,displacement of [3H]MK-801 binding,[1],displacement curves similar to dextromethorphan
same,ability to negotiate the 60-degree mesh,"rat; 32 μg/rat, immediately before formalin",able to negotiate the 60-degree mesh
same,transient motor paralysis of the hind limbs,rat; 160 μg/rat spinal,44%
same,transient motor paralysis of the hind limbs,rat; 320 μg/rat spinal,100%
same,onset of the paralysis after administration,rat; 160 and 320 μg/rat spinal,approximately 1 minute
same,opioid activity,[3],weak or inactive
